Assay results taken from article PMC5433929, “High-resolution crystal structure of the human CB1 cannabinoid receptor” (Nature, 2016).

By UniProt entry, the sequences of proteins in these tests, tags left out. Where a name states a change or a piece, a line headed by the entry shows the natural chain unless it says otherwise.
UniProt P21554: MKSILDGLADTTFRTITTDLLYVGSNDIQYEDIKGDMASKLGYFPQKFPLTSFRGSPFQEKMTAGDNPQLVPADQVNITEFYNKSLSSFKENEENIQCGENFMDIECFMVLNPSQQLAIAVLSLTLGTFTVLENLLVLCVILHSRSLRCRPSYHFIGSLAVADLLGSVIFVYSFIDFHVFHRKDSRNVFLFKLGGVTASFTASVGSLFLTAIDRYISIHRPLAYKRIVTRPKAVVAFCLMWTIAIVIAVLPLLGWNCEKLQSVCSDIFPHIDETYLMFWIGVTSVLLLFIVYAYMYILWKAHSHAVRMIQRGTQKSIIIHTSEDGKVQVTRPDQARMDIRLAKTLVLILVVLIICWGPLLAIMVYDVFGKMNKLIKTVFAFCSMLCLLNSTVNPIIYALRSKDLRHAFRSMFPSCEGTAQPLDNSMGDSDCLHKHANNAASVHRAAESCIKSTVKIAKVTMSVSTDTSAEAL

Biological target: CB1^T210A-PGS (Homo sapiens, UniProt P21554, DEL304-332/H302F/INS301[…]/T210A)
Conditions: competition binding

Compound: C[C@H](NC(=O)C(C)(C)Oc1ccc(C(F)(F)F)cn1)[C@@H](Cc1ccc(Cl)cc1)c1cccc(C#N)c1 [taranabant, N-[(1S,2S)-3-(4-chlorophenyl)-2-(3-cyanophenyl)-1-methylpropyl]-2-methyl-2-{[5-(trifluoromethyl)pyridin-2-yl]oxy}propanamide]
- binding of engineered construct compared with wild-type CB1: nearly identically to wild-type CB1
